Measurements taken from patent US6936585B2, “Corticotropin releasing factor 2 receptor agonists” (priority 2002, dated 2005).

Legend:
CRF2R = target: T1, CRF2R (Homo sapiens, UniProt Q13324); test: CRF2R agonist activation (EC50 / Emax), called comparative CRF binding; assay type: cell-based; settings: for Emax: read-out: CRF2R Emax
T1 sequence (Q13324 1-411): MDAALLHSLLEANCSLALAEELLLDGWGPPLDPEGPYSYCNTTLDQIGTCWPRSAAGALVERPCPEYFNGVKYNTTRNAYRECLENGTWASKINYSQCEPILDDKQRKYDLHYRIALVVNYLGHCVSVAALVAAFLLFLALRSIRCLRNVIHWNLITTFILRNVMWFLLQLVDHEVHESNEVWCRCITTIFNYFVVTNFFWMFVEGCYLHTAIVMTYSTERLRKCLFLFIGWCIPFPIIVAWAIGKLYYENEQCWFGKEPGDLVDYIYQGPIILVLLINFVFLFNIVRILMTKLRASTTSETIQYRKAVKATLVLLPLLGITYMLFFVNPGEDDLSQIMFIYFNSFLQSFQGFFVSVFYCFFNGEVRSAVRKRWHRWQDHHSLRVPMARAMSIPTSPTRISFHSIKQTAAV
Text: (§1) The pharmacological activity and selectivity of the peptides of present invention can be determined using published test procedures. See, e.g, U.S. patent application Ser. No. 09/799,978 (now issued U.S. Pat. No. 6,670,140). Because CRF2R and CRF1R are homologous proteins, it is expected that a certain proportion of agonists for CRF2R will also function as agonists of CRF1R. As discussed above, activation of CRF1R induces activation of the HPA axis since increased corticosteroid production leads to skeletal muscle atrophy. In most cases in which an increase in muscle mass or function is desired, it is not desirable to activate the HPA axis.
(§2) Cell-based assays include the steps of contacting cells which express CRF1R or CRF2R with a peptide of the present invention or control and measuring activation of the CRFR by measuring the expression or activity of components of the CRFR signal transduction pathways.
(§3) For example, after contact with a peptide of the present invention, lysates of the cells can be prepared and assayed for induction of cAMP. cAMP is induced in response to Gαs activation. Because Gαs is activated by receptors other than CRFR and because a test peptide may be exerting its effect through CRFRs or by another mechanism, two control comparisons are relevant for determining whether the peptide increases levels of cAMP via activation of a CRFR. One control compares the cAMP level of cells contacted with the peptide and the cAMP level of cells contacted with a control compound (i.e., the vehicle in which the peptide is dissolved).
(§4) In one example, cAMP induction is measured with the use of DNA constructs containing the cAMP responsive element linked to any of a variety of reporter genes can be introduced into cells expressing CRFRs. Such reporter genes include, but are not limited to, chloramphenicol acetyltransferase (CAT), luciferase, glucuronide synthetase, growth hormone, fluorescent proteins (e.g., Green Fluorescent Protein), or alkaline phosphatase. Following exposure of the cells to the peptide, the level of reporter gene expression can be quantitated to determine the peptide's ability to increase cAMP levels and thus determine the peptide's ability to activate the CRFR.
(§5) In addition to using cells expressing full length CRFRs, cells can be engineered which express CRFRs containing the ligand binding domain of the receptor coupled to, or physically modified to contain, reporter elements or to interact with signaling proteins. For example, a wild type CRFR or CRFR fragment can be fused to a G-protein resulting in activation of the fused G-protein upon agonist binding to the CRFR portion of the fusion protein. […] In addition, alternative pathways for induction of the CRE reporter could be eliminated to reduce basal levels.

CRF1R = target: T2, CRF1R (Homo sapiens, UniProt P34998); test: CRF1R agonist activation (EC50 / Emax), called comparative CRF binding; assay type: cell-based; settings: for EC50: CRF1R EC50; for Emax: read-out: CRF1R Emax
T2 sequence (P34998 24-415): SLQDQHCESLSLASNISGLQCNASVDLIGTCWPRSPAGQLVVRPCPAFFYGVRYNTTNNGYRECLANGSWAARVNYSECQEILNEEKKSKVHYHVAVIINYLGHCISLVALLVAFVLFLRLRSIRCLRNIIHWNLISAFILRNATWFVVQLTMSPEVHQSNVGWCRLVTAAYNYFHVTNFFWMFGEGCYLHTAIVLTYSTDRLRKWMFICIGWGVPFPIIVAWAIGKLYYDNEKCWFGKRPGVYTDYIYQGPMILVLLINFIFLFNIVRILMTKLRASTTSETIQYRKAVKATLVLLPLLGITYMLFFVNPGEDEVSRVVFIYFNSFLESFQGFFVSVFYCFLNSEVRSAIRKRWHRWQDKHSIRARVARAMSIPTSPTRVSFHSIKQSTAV
Text: as §1, §2, §3, §4, §5

Structure (SMILES)	EC50 (CRF2R) [nM]	Emax (CRF2R) [%]	EC50 (CRF1R) [nM]	Emax (CRF1R) [%]
CC[C@H](C)[C@H](NC(=O)[C@@H](NC(=O)[C@H](CC(=O)O)NC(=O)[C@H](CC(C)C)NC(=O)[C@H](CC(C)C)NC(=O)[C@H](CC(C)C)NC(=O)[C@H](CCCNC(=N)N)NC(=O)[C@H](CC(N)=O)NC(=O)[C@H](CC(N)=O)NC(=O)[C@H](C)NC(=O)[C@H](C)NC(=O)[C@H](CCC(N)=O)NC(=O)[C@H](CCC(N)=O)NC(=O)[C@H](CCCCN)NC(=O)[C@H](CCC(=O)O)NC(=O)[C@H](CCCCN)NC(=O)[C@H](CCC(=O)O)NC(=O)[C@H](CCC(N)=O)NC(=O)[C@H](CCCCN)NC(=O)[C@H](CCC(=O)O)NC(=O)[C@@H](NC(=O)[C@H](CCC(=O)O)NC(=O)[C@@H](NC(=O)[C@H](CCSC)NC(=O)[C@H](CCCCN)NC(=O)[C@H](CCCNC(=N)N)NC(=O)[C@H](CC(C)C)NC(=O)[C@H](CC(C)C)NC(=O)[C@H](C)NC(=O)[C@H](CCC(N)=O)NC(=O)[C@@H]1CCCN1C(=O)[C@H](CC(C)C)NC(=O)[C@H](CC(=O)O)NC(=O)[C@@H](NC(=O)[C@H](CO)NC(=O)[C@@H](NC(=O)[C@@H]1CCCN1C(=O)[C@@H]1CCCN1C(=O)CNC(=O)[C@@H]1CCC(=O)N1)[C@@H](C)CC)[C@@H](C)CC)[C@@H](C)CC)[C@@H](C)CC)[C@@H](C)O)C(N)=O [compound 302]	36.2	100	367	100
CC[C@H](C)[C@H](NC(=O)[C@@H](NC(=O)[C@H](CC(=O)O)NC(=O)[C@H](CC(C)C)NC(=O)[C@H](CC(C)C)NC(=O)[C@H](CC(C)C)NC(=O)[C@H](CCCNC(=N)N)NC(=O)[C@H](CC(N)=O)NC(=O)[C@H](CC(N)=O)NC(=O)[C@H](C)NC(=O)[C@H](C)NC(=O)[C@H](CCC(N)=O)NC(=O)[C@H](CCC(N)=O)NC(=O)[C@H](CCCCN)NC(=O)[C@H](CCC(=O)O)NC(=O)[C@H](CCCCN)NC(=O)[C@H](CCC(=O)O)NC(=O)[C@H](CCC(N)=O)NC(=O)[C@H](CCCCN)NC(=O)[C@H](CCC(=O)O)NC(=O)[C@@H](NC(=O)[C@H](CCC(=O)O)NC(=O)[C@@H](NC(=O)[C@H](CCSC)NC(=O)[C@H](CCCCN)NC(=O)[C@H](CCCNC(=N)N)NC(=O)[C@H](CC(C)C)NC(=O)[C@H](CC(C)C)NC(=O)[C@H](CCC(N)=O)NC(=O)[C@H](Cc1ccc(O)cc1)NC(=O)[C@@H]1CCCN1C(=O)[C@H](CC(C)C)NC(=O)[C@H](CC(=O)O)NC(=O)[C@@H](NC(=O)[C@H](CO)NC(=O)[C@@H](NC(=O)[C@@H]1CCCN1C(=O)[C@@H]1CCCN1C(=O)CNC(=O)[C@@H]1CCC(=O)N1)[C@@H](C)CC)[C@@H](C)CC)[C@@H](C)CC)[C@@H](C)CC)[C@@H](C)O)C(N)=O [compound 202]		99		100
CC[C@H](C)[C@H](NC(=O)[C@@H](NC(=O)[C@H](C)NC(=O)[C@H](CC(C)C)NC(=O)[C@H](CC(C)C)NC(=O)[C@H](CC(C)C)NC(=O)[C@H](C)NC(=O)[C@H](CC(N)=O)NC(=O)[C@H](CC(N)=O)NC(=O)[C@H](C)NC(=O)[C@H](C)NC(=O)[C@H](CCC(N)=O)NC(=O)[C@H](CCC(N)=O)NC(=O)[C@H](CCCCN)NC(=O)[C@H](CCC(=O)O)NC(=O)[C@H](CCCCN)NC(=O)[C@H](CCC(=O)O)NC(=O)[C@H](CCC(N)=O)NC(=O)[C@H](CCCCN)NC(=O)[C@H](CCC(=O)O)NC(=O)[C@@H](NC(=O)[C@H](CCC(=O)O)NC(=O)[C@@H](NC(=O)[C@H](CCSC)NC(=O)[C@H](CCCCN)NC(=O)[C@H](CCCNC(=N)N)NC(=O)[C@H](CC(C)C)NC(=O)[C@H](CC(C)C)NC(=O)[C@H](CCC(=O)O)NC(=O)[C@H](CC(C)C)NC(=O)[C@@H]1CCCN1C(=O)[C@H](CC(C)C)NC(=O)[C@H](CC(=O)O)NC(=O)[C@@H](NC(=O)[C@H](CO)NC(=O)[C@@H](NC(=O)[C@@H]1CCCN1C(=O)[C@@H]1CCCN1C(=O)CNC(=O)[C@@H]1CCC(=O)N1)[C@@H](C)CC)[C@@H](C)CC)[C@@H](C)CC)[C@@H](C)CC)[C@@H](C)O)C(N)=O [compound 234]		100		96
CC[C@H](C)[C@H](NC(=O)[C@H](CCCNC(=N)N)NC(=O)[C@H](C)NC(=O)[C@H](CC(C)C)NC(=O)[C@H](CC(C)C)NC(=O)[C@H](CCCNC(=N)N)NC(=O)[C@H](C)NC(=O)[C@H](CC(N)=O)NC(=O)[C@H](CC(N)=O)NC(=O)[C@H](C)NC(=O)[C@H](C)NC(=O)[C@H](CCC(N)=O)NC(=O)[C@H](CCC(N)=O)NC(=O)[C@H](CCCCN)NC(=O)[C@H](CCC(=O)O)NC(=O)[C@H](CCCCN)NC(=O)[C@H](CCC(=O)O)NC(=O)[C@H](CCC(N)=O)NC(=O)[C@H](CCCCN)NC(=O)[C@H](CCC(=O)O)NC(=O)[C@@H](NC(=O)[C@H](CCC(=O)O)NC(=O)[C@@H](NC(=O)[C@H](CCSC)NC(=O)[C@H](CCCCN)NC(=O)[C@H](CCCNC(=N)N)NC(=O)[C@H](CC(C)C)NC(=O)[C@H](CC(C)C)NC(=O)[C@@H](NC(=O)[C@H](CCC(N)=O)NC(=O)[C@@H]1CCCN1C(=O)[C@H](CC(C)C)NC(=O)[C@H](CC(=O)O)NC(=O)[C@@H](NC(=O)[C@H](CO)NC(=O)[C@@H](NC(=O)[C@@H]1CCCN1C(=O)[C@@H]1CCCN1C(=O)CNC(=O)[C@@H]1CCC(=O)N1)[C@@H](C)CC)[C@@H](C)CC)[C@@H](C)CC)[C@@H](C)CC)[C@@H](C)CC)C(N)=O [compound 285]	14	97.1	≥ 1000	11.1
CC[C@H](C)[C@H](NC(=O)[C@@H](NC(=O)[C@H](CC(=O)O)NC(=O)[C@H](CC(C)C)NC(=O)[C@H](CC(C)C)NC(=O)[C@H](CC(C)C)NC(=O)[C@H](CCCNC(=N)N)NC(=O)[C@H](CC(N)=O)NC(=O)[C@H](CC(N)=O)NC(=O)[C@H](C)NC(=O)[C@H](C)NC(=O)[C@H](CCC(N)=O)NC(=O)[C@H](CCC(N)=O)NC(=O)[C@H](CCCCN)NC(=O)[C@H](CCC(=O)O)NC(=O)[C@H](CCCCN)NC(=O)[C@H](CCC(=O)O)NC(=O)[C@H](CCC(N)=O)NC(=O)[C@H](CCCCN)NC(=O)[C@H](CCC(=O)O)NC(=O)[C@@H](NC(=O)[C@H](CCC(=O)O)NC(=O)[C@@H](NC(=O)[C@H](CCSC)NC(=O)[C@H](CCCCN)NC(=O)[C@H](CCCNC(=N)N)NC(=O)[C@H](CC(C)C)NC(=O)[C@H](CC(C)C)NC(=O)[C@@H](NC(=O)[C@@H](NC(=O)[C@@H]1CCCN1C(=O)[C@H](CC(C)C)NC(=O)[C@H](CC(=O)O)NC(=O)[C@@H](NC(=O)[C@H](CO)NC(=O)[C@@H](NC(=O)[C@@H]1CCCN1C(=O)[C@@H]1CCCN1C(=O)CNC(=O)[C@@H]1CCC(=O)N1)[C@@H](C)CC)[C@@H](C)CC)[C@@H](C)CC)[C@@H](C)O)[C@@H](C)CC)[C@@H](C)CC)[C@@H](C)O)C(N)=O [compound 24]		100		18
